Amino acid sequences for entries named in this document (tags omitted). Residues count along the entry.
UniProt Q13224, 27-1484 limits assumed: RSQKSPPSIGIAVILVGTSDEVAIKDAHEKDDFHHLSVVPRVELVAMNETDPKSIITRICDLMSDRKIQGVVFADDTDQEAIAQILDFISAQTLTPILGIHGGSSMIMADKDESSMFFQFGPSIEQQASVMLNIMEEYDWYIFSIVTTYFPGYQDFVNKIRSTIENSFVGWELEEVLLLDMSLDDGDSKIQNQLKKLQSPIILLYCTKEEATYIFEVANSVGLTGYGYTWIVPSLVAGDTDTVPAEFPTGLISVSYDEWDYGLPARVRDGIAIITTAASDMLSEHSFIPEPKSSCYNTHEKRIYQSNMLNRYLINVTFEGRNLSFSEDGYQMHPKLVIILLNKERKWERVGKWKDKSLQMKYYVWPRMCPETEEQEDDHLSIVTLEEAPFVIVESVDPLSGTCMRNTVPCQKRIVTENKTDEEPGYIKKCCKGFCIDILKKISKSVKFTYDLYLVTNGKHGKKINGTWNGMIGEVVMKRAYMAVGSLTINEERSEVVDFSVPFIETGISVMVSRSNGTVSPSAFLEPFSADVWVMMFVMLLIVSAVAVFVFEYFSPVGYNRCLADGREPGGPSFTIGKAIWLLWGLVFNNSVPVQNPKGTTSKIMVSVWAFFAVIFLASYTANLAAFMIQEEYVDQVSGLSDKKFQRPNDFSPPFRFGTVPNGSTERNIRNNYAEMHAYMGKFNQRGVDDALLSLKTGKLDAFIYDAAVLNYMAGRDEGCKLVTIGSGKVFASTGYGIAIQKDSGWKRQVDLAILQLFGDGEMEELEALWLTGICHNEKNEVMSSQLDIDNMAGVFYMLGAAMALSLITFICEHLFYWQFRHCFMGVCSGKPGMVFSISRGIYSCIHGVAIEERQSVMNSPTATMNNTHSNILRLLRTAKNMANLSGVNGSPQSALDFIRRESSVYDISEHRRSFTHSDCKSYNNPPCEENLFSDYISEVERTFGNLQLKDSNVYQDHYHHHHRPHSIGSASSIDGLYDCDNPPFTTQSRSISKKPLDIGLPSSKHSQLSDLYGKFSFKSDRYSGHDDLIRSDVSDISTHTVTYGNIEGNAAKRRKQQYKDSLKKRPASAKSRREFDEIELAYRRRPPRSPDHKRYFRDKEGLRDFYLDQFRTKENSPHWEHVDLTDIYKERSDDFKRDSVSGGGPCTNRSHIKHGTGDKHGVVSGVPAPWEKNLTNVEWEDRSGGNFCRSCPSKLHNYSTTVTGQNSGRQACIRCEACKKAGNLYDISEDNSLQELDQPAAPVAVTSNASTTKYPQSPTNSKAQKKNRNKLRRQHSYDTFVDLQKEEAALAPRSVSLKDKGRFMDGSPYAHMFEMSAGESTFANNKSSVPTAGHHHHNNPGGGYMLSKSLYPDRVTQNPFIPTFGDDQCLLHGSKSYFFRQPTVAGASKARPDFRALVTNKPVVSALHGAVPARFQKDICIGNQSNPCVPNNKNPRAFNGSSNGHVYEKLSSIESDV

These molecules were tested against hNR2B (Homo sapiens, UniProt Q13224) (assay: Electrophysiology NMDA receptor experiments: two electrode voltage-clamp in Xenopus laevis oocytes expressing GluN1/GluN2 subunits). Settings: read-out: Rating (hNR2B IC50); oocytes voltage clamped at −40 mV; 50 μM glutamate, 30 μM glycine.
Method: Electrophysiology NMDA Receptor Experiments.
Stage V and VI oocytes were surgically removed from the ovaries of large, well-fed and healthy Xenopus laevis anesthetized with 3-amino-benzoic acid ethyl ester (3 gm/l). Clusters of isolated oocytes were incubated with 292 U/ml Worthington (Freehold, N.J.) type IV collagenase or 1.3 mg/ml collagenase (Life Technologies, Gaithersburg, Md.; 17018-029) for 2 hr in Ca^2+-free solution comprised of (in mM) 115 NaCl, 2.5 KCl, and 10 HEPES, pH 7.5, with slow agitation to remove the follicular cell layer. Oocytes were then washed in the same solution supplemented with 1.8 mM CaCl2 and maintained in Barth's solution comprised of (in mM): 88 NaCl, 1 KCl, 2.4 NaHCO3, 10 HEPES, 0.82 MgSO4, 0.33 Ca(NO3)2, and 0.91 CaCl2 and supplemented with 100 μg/ml gentamycin, 10 μg/ml streptomycin, and 10 μg/ml penicillin. Oocytes were manually defolliculated and injected within 24 hrs of isolation with 3-5 ng of human GluN1 subunit cRNA and 7-10 ng of human GluN2 cRNA subunit in a 50 nl volume, and incubated in Barth's solution at 18° C. for 2-7 d. Glass injection pipettes had tip sizes ranging from 10-20 microns, and were backfilled with mineral oil. cRNA was synthesized from linearized template cDNA for rat glutamate receptor subunits according to manufacturer specifications (Ambion).
Two electrode voltage-clamp recordings were made 2-7 days post-injection. Oocytes were placed in a dual-track plexiglass recording chamber with a single perfusion line that splits in a Y-configuration to perfuse two oocytes. Dual recordings were made at room temperature (23° C.) using two Warner OC725B two-electrode voltage clamp amplifiers, arranged as recommended by the manufacturer. Glass microelectrodes (1-10 Megaohms) were filled with 300 mM KCl (voltage electrode) or 3 M KCl (current electrode). The bath clamps communicated across silver chloride wires placed into each side of the recording chamber, both of which were assumed to be at a reference potential of 0 mV. Oocytes were perfused with a solution comprised of (in mM) 90 NaCl, 1 KCl, 10 HEPES, […] and 0.5 BaCl2; pH 7.4, adjusted by addition of NaOH. Oocytes were recorded under voltage clamp at −40 mV. Final concentrations for glutamate and glycine were 50 μM and 30 μM, respectively. Concentration-response curves for experimental compounds were obtained by applying in successive fashion maximal glutamate/glycine, followed by glutamate/glycine plus variable concentrations of experimental compounds. Dose response curves consisting of four to eight concentrations were obtained in this manner. The baseline leak current at −40 mV was measured before and after recording, and the full recording linearly corrected for any change in leak current. The level of inhibition by applied experimental compounds was expressed as a percent of the initial glutamate response, and averaged together across oocytes from multiple experiments. Results were pooled, and the average percent responses at antagonist concentrations were fit by the equation, Percent Response=(100−minimum)/(1+([conc]/IC50)^nH)+minimum where minimum is the residual percent response in saturating concentration of the experimental compounds, IC50 is the concentration of antagonist that causes half of the achievable inhibition, and nH is a slope factor describing steepness of the inhibition curve. […]
For NMDA receptor subtype selectivity experiments human GluN1/GluN2A, GluN1/GluN2C, and GluN1/GluN2D cRNAs were expressed in Xenopus laevis as described above. Here, 10 μM concentrations of the antagonist was perfused with 50 μM glutamate and 30 μM glycine onto the oocyte for two min and the remaining current in the presence of the antagonist was compared to the maximal current obtained with 50 μM glutamate and 30 μM glycine alone (defined as 100%). When IC50 determinations were made against other NMDA receptor subtypes the protocol as described above was followed. […]
For `Cc1ccc(Nc2ncc(CCc3ccc4[nH]ncc4c3)cn2)cc1F`, the IC50 was 1 to 10 µM. `CC(Cc1ccc2[nH]c(=O)ccc2c1)c1cnc(Nc2ccc(OC(F)F)cc2)nc1` (stereo not shown) gave an IC50 of 0.201 to 1 µM. `FC(F)Oc1ccc(Nc2ncc(C3CC3c3ccc4[nH]ncc4c3)cn2)cc1` (stereo not shown) gave an IC50 of 1 to 10 µM. For `Cc1ccc(Nc2ncc(CCc3ccc4[nH]c(=O)ccc4c3)cn2)cc1F`, the IC50 was < 0.2 µM. With `O=c1[nH]c2ccc(CCc3cnc(Nc4ccc(OC(F)F)cc4)nc3)cc2o1` the IC50 was < 0.2 µM. With `CC(Cc1ccc2[nH]ncc2c1)c1cnc(Nc2ccc(OC(F)F)cc2)nc1` (stereo not shown) the IC50 was 1 to 10 µM. `FC(F)Oc1ccc(Nc2ncc(CCc3ccc4[nH]nc(Cl)c4c3)cn2)cc1` was tested, and the IC50 was > 10 µM.

From patent publication US8841301B2, “Selective NR2B antagonists” (Bristol-Myers Squibb Company, priority 2011, dated 2014)
